The numbers were not newly measured in patent US20220331213A1, “ANTIMICROBIAL COMPOSITIONS COMPRISING A BENZOIC ACID ANALOG AND ACID PH BUFFERS” (eHealth Nexus LLC, priority 2021, published 2022), which cites them from elsewhere.

Each structure is given as a SMILES string.

For the data set the following is noted: aqueous pKa.

Regarding `O=C(O)c1cccnc1` [nicotinic acid], the “pKa (acid dissociation constant)” value is given as roughly 4.75.
